Ab-14 light chain CDR variants: yeast mating affinities

Reference: Li et al. 2023, doi:10.1038/s41467-023-39022-2. File: FLAb, binding data.

Target: peptide PDVDLGDISGINAS, taken from heptad repeat 2 (HR2) of SARS-CoV-2 spike.

Ab-14 is the parent antibody, in scFv form: VH, then a 15-residue (Gly4Ser)3 linker, then VL. The heavy chain is unchanged in all variants.
VH: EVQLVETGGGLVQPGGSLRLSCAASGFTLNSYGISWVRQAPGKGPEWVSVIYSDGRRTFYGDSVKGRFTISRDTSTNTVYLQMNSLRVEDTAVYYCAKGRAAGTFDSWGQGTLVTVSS
VL: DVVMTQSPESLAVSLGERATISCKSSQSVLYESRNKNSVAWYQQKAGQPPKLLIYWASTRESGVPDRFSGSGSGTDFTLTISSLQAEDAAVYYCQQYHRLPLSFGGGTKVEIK

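Phage display of a naive human antibody library on the peptide gave the parent. The variants were designed computationally from a first round of random CDR variants and then made and measured. Group labels follow the data file (En: ensemble of fine-tuned language models; GP: Gaussian process model; HC: hill climbing; Gen: genetic algorithm; Gibbs: Gibbs sampling; a sequence that several methods proposed may carry one label only). The scFvs were displayed on barcoded MATa yeast, the peptide on MATalpha yeast. After mating in shaken culture at 30 °C for 16 h, diploids were selected and their barcode pairs sequenced. Scores were corrected for input abundance and mapped to Kd with protein pairs of known affinity run in the same pool. Each pool was mated in six replicate cultures.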

Each variant is given by its three light chain CDRs, as the data file delimits them; those of the parent are KSSQSVLYESRNKNSVA, WASTRES, QQYHRLPLS.
This list holds designs with more than six substitutions.
The read-out is the apparent dissociation constant on a log10 scale (nM): the lower, the stronger.
"nd" means that the variant was in the library but no mating with the target was seen in that replicate; the authors take this as a sign of poor binding, and no number exists.
The authors' rule: three or more of the six replicates give a measured affinity, fewer mean a poor binder.
A sequence measured in both rounds can read differently, since the two assays cover different ranges.
As a blank, each scFv also met three strains without target: over all light chain designs, 4% of these pairings were detected, typically at 2.64 and seldom below 1.59.

Variant MIYGAQRELGLAANSIA / DNVTRYD / QQYHRLPLS [En_Gen] gave 2.16, 2.52, 1.96, 2.54, 2.31, 2.12. Variant KLGQSVAMTSRAKNNVA / DLNERER / QQYHRLPLS [En_HC] showed 0.28, -0.19, -0.29, 0.55, 0.21, 0.37. Variant KSECSEPYDSPNSNSVA / NASQRER / QQYHRLPLS [GP_Gibbs] gave 0.71, 0.94, 0.90, 0.96, 0.59, 1.17. With NMVEDEAGDQKNSQNIA / SVDQRED / QQYQKLPLM [En_Gibbs] the result was -0.02, -0.24, -0.39, -0.54, -0.40, -0.09. Variant TISQSAQNESHNKNSVA / DLSVRGS / QQYHRLPLS [En_HC] gave 0.40, 0.45, 0.65, 0.45, 0.36, 0.55.

With MISQLYNMGQFAINSVA / QASERNE / QQYDRLPLT [En_Gen] the result was nd, nd, nd, nd, nd, nd. With SISELYAGWDANNKSIA / ASILQME / QQYHRLPLC [En_Gibbs] the result was nd, nd, nd, 1.46, nd, nd. For NLQNIGSELSVWKNAIA / DVNIKES / QQYFRLPLL [En_Gibbs], the assay gave 0.44, 0.21, 0.34, 0.17, 0.32, 0.22. Variant RIQEQMQKPDNIGQNVA / EAQTVID / QQYAHLPLI [En_Gibbs] gave 1.57, 0.95, 1.52, 1.08, 1.62, 1.80. For KISMLYNYESTNKNSIA / EMTTRES / QHYHRLPLS [En_HC], the assay gave 1.56, 1.34, 0.60, 1.17, 0.95, 1.63.

Variant KLSPSVMYESRMKNSVA / MASTRYE / QQYHRLPLS [GP_Gibbs] gave 0.11, 0.16, 0.11, 0.00, -0.01, 0.10. With KISCAVYYGDRNKMSVA / DASTRES / QQYHRLPLS [GP_Gibbs] the result was 0.02, -0.04, 0.02, -0.14, -0.03, 0.12. Variant KISMLYNFQSTNKNSIA / EMTTRES / QHYHRLPLS [En_HC] showed nd, nd, nd, nd, nd, nd. Variant RIEILGDEVTQHYSNVA / EQHVTDM / QQYFRLPLS [En_Gibbs] gave 0.93, 2.57, nd, 2.40, 1.34, 1.50. Variant HISQSFMTESVWRNNVA / HQSTREQ / QQYDRLPFS [En_HC] showed 1.39, 0.81, nd, 0.64, 1.07, 2.11.

For KISQSVNVGQKNKNSLA / EMSTREF / QDYHRLPLS [En_HC], the assay gave 1.44, 1.81, 1.12, 1.96, 1.85, 1.70. Variant KMTTNLEHQADRKNSIA / EADMVAA / QDYMRLPLI [En_Gibbs] gave 2.30, 1.54, 1.90, 1.76, nd, nd. Variant IISGSMLMESRHKNSVA / NAETREY / QHYDRLPLS [En_HC] showed 0.74, 0.56, 0.63, 0.33, 0.50, 0.38. With TLHANIEYGGGTWKSIA / DNTQRVD / QYYQRLPLG [En_Gibbs] the result was nd, nd, nd, nd, nd, nd. With QLLMATMQGTYNRNSVA / HAETRND / QSYHRLPLS [En_HC] the result was nd, 2.03, 1.11, 2.76, 3.49, nd.

With NITQQGNAMGDQRNNVA / NVETLQH / QQYAHLPLL [En_Gibbs] the result was 0.52, 0.80, 0.41, 0.47, 0.79, 0.81. Variant KLSQSVNMTGKNKNSVA / ELSFREN / QQYERLPLS [En_HC] showed 0.92, 0.90, 0.61, 0.95, 1.30, 0.75. Variant MISQVMNTLTREGNNVA / DLAEREK / QQYFRLPLS [En_Gen] showed 1.52, 0.85, 0.38, 0.51, 0.79, 0.08. Variant NLGFVDDNDNQMMMSIA / DANTVGE / QQYNRLPLA [En_Gibbs] showed 1.19, 0.91, 0.34, 0.53, 1.60, 0.19. Variant SFERGYDGNSLVQNNVA / EGTTLWE / QQYMRLPLA [En_Gibbs] gave 0.87, 0.77, 0.37, 0.72, 0.63, 0.66.

Variant KLDQSWLYGSRNKNSVA / NASERER / QQYHRLPLS [GP_Gibbs] showed 0.46, 0.57, 1.08, 0.45, 0.46, 0.97. Variant TVSQVHEMLSKNKNSVA / DMNTRES / QQYDRLPLS [En_HC] gave 0.47, 0.39, -0.12, 0.10, 0.34, 0.11. For HIQEVDNQVENKYGNVA / DASEYVA / QQYFQLPIS [En_Gibbs], the assay gave 1.33, 1.92, 1.55, 2.03, 2.31, 1.38. Variant RFTEHILGLENKIYAIA / NATKLME / QQYFRLPFA [En_Gibbs] showed 0.93, 0.61, 0.84, 0.80, 0.44, 1.05. Variant NLVSKADYMDSERQNIA / NMDTRNT / QQYFHLPLT [En_Gibbs] gave 0.03, -0.01, 0.66, 0.03, 0.03, 0.56.

For KFSQAVNTMSVSNSAVA / EMSTRPE / QQYNRLPLA [En_Gen], the assay gave 0.99, 0.75, 0.74, 0.60, 0.63, 0.71. Variant KVFMELAYDKASTRNIA / DASVHCA / QQYQRLPLG [En_Gibbs] showed 0.78, 0.56, 0.65, 0.40, 0.41, 0.87. Variant FLSQSVLYESREDNSVA / NASQRCS / QQYHRLPLS [GP_Gibbs] gave -0.03, -0.16, -0.41, -0.04, -0.09, 0.16. For KLSQLTGHMKMVKNNVA / EMVTREN / QQYNRLPLS [En_Gen], the assay gave 0.48, 0.48, 0.42, 0.45, 0.30, 0.45. Variant LVDQSNLYEQRNKNSVA / SASLRES / QQYHRLPLS [GP_Gibbs] showed 0.58, 0.16, 0.24, 0.47, 0.23, 0.46.

For RFTDHFLGLGNGRQAIA / HATVAVE / QQYHQLPLA [En_Gibbs], the assay gave 0.45, 0.34, 0.53, 0.43, 0.61, 0.46. Variant KLSVMTSYLSVNKNSVA / EMSTREN / QQYDRLPLS [En_HC] gave 1.58, 2.50, 1.91, 1.72, 1.78, 1.93. Variant RLSIPMDYYMENRSSIA / EMTVKEM / QQYQKLPLA [En_Gibbs] gave nd, nd, nd, nd, nd, nd. Variant IVSQSVLGESRNKNSVA / QMSEREY / QQYDRLPLS [En_HC] gave 1.45, 0.83, 1.87, 1.89, 1.39, 1.15. For KLSSHYFESYGERQAVA / DNEATMN / QQYHLLPLS [En_Gibbs], the assay gave nd, nd, 1.38, 1.77, 1.82, 2.68.

Variant MISQLYNMGSFAINSVA / QASVRYE / QQYDRLPLQ [En_Gen] gave nd, nd, nd, nd, nd, nd. For KLSQSDWMESRNKWNVA / SASYRES / QQYHRLPLS [GP_Gibbs], the assay gave 0.05, 0.02, -0.27, -0.33, 0.15, 0.34. With SLGLATMLEEYKRNSVA / NNSTRES / QQYDRLPLS [En_Gen] the result was nd, 3.09, nd, nd, nd, nd. Variant TLYGLSMSMSKNKNSVA / EMTTREK / QQYDRLPLM [En_Gen] gave 0.97, 1.02, 0.89, 0.84, 0.75, 0.97. For MISQIMNMGQFAINSVA / QASMRCN / QQYDRLPLM [En_Gen], the assay gave nd, 1.54, 2.77, 1.77, 2.00, nd.

With KLSMSEWMESRNKNSVA / SANTREE / QQYHRLPLS [GP_Gibbs] the result was -0.24, -0.16, -0.49, -0.43, -0.47, -0.36. With HMSMLTLQGMRMRNSVA / QMTTRVN / QQYDRLPLA [En_Gen] the result was nd, nd, nd, nd, nd, nd. For KLNDAYQGDIVNNQNIA / SADTLNH / QQYAKLPLS [En_Gibbs], the assay gave 0.36, 0.31, 0.31, 0.56, 0.22, 0.53. Variant KLSGIMRLESKVSNSIA / EMTTRGA / QQYDRLPLS [En_Gen] showed 0.90, 0.72, 0.49, 0.44, 0.71, 0.62. With KIGGVTNGISRNANSVA / EQSTRED / QQYNRLPLS [En_HC] the result was 0.30, 0.28, 0.23, -0.06, 0.07, 0.43.

For TISTSATYESINKNSVA / ELSTRGS / QQYERLPLS [En_HC], the assay gave nd, nd, nd, nd, nd, nd.